System: lung cells into which EML4-ALK fusion gene was introduced, transplanted subcutaneously
Test: Crizotinib treatment experiment using cancer-bearing mouse model
Format: in vivo
Details: athymic mouse, 150 mg/kg orally for 14 consecutive days, vs methylcellulose control, n=3, P<0.05 Student's t-test

Structure (SMILES): C[C@@H](Oc1cc(-c2cnn(C3CCNCC3)c2)cnc1N)c1c(Cl)ccc(F)c1Cl [crizotinib]
- tumor volume (tumor growth): tumor growth was significantly suppressed
